Antibody variant affinities, Ab-14 heavy chain, assay 1

Data: MIT Lincoln Laboratory AlphaSeq set, Engelhart et al. 2022, doi:10.1038/s41597-022-01779-4, as distributed in FLAb.

All variants were tested on one target, the spike HR2 peptide PDVDLGDISGINAS (SARS-CoV-2).

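Phage display of a naive human antibody library on the peptide gave the parent. The library (AAYL49) carries one to three amino acid substitutions per variant, with no insertions or deletions. The assay is AlphaSeq: two haploid yeast populations carry antibody and antigen on their surface. Mating (16 h, 30 °C) was followed by selection of diploids and sequencing of their barcodes. Read counts were normalised to the haploid input and turned into Kd by a linear fit to BCL2-family pairs of known affinity, for each replicate. Each pool was mated in three replicate cultures.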

The variants keep the light chain, the linker and the frameworks of Ab-14 (scFv order VH, three GGGGS repeats, VL).
VH: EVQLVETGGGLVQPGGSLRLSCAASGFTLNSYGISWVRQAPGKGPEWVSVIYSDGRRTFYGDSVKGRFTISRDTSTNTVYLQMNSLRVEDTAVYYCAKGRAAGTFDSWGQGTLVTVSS
VL: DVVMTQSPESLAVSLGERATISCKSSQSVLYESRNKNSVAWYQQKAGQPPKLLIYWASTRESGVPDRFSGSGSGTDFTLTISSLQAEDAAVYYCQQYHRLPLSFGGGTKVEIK

The parent's heavy chain CDRs are GFTLNSYGIS, VIYSDGRRTFYGDSVK, GRAAGTFDS; each variant's own CDRs replace them letter for letter.
Affinities are written as log10 Kd with Kd in nM; a lower number is a better binder.
Where no diploid with the target was found in that replicate, the entry reads "ND": below detection, most likely a poor binder, though not proof of it.
For reference, the parent read 0.65 as the reference entry and 4.11 (one replicate of three) as a member of this library.
Three control strains display no target. For library AAYL49, 15% of the pairings with them gave a signal, with a median of 4.06 and one signal in twenty below 2.83, so weak values seen in few replicates may be background. The control count says in how many pairings with the empty strains this scFv gave a signal.

The variant GFPLNSYGIS / VIYSDGRRTFYGDSVK / GRGMGTFDS showed 1.37, 1.73, 1.63 (controls 2 of 9).
The variant GFTLNSVGKS / VIYSDGRRTFYGDSVK / GRWAGTFDS showed ND, ND, ND (controls 0 of 9).
The variant GFTVNMYGIS / VIYSDGRRTFYGDSVK / GRAAGTFVS showed 0.95, 1.39, 1.18 (controls 1 of 9).
The variant GNTLNPYGIS / VIYSSGRRTFYGDSVK / GRAAGTFDS showed 2.78, ND, ND (controls 1 of 9).
The variant GFTLNSYYIS / VIYYDGRRTFYGDSVK / GRAAITFDS showed ND, ND, ND (controls 0 of 9).
The variant GFTLNSYGIS / PIYSDGRRTFYGDSVD / GRAAGTFCS showed ND, ND, ND (controls 0 of 9).
The variant GFTLNSYGAS / VIPSDGRRTFYGDSDK / GRAAGTFDS showed 6.17, 5.34, ND (controls 5 of 9).
The variant GFTLNSYGIS / VIYSDGRCTFYGDSVK / GREAWTFDS showed 3.44, ND, ND (controls 0 of 9).
The variant GFTLNSYGYS / KICSDGRRTFYGDSVK / GRAAGTFDS showed 5.56, 5.45, 5.58 (controls 3 of 9).
The variant GFTLNSYGIS / VIYSDGRRCEYGDSVK / GRAAGTFDS showed 1.24, 1.47, 1.33 (controls 2 of 9).
The variant GFTLNAYGIS / VIYSDGRRTFYGKSVK / GRAAGTFCS showed 1.42, 1.55, 1.65 (controls 0 of 9).
The variant GFTLNDYTIS / VIYSLGRRTFYGDSVK / GRAAGTFDS showed ND, ND, ND (controls 5 of 9).
The variant GFTLNSYGIS / VIGQDGRRTFYGDSVK / GRAAGTFDS showed ND, 3.79, ND (controls 1 of 9).
The variant GFTLNSYGIS / VIYSDGRRTSYGDSVC / CRAAGTFDS showed ND, 2.35, ND (controls 0 of 9).
The variant GFTLNSPGIS / VIYSDGRRTFYGDSFQ / GRAAGTFDS showed ND, 5.03, ND (controls 3 of 9).
The variant GFTLNSYGIS / VIYSDGRRTFYGDMVK / GRAAGTSDS showed ND, ND, ND (controls 2 of 9).
The variant GFTNNSYGIM / VIYSDGRRTFYGDSVK / GRAAGTFDS showed ND, ND, ND (controls 0 of 9).
The variant MFTLNSYGIP / VIYSDGRRTFYGDSVK / GRAAGTFDS showed ND, 4.28, ND (controls 0 of 9).
The variant GFTLCSYGIS / VIYSDGRRTFYGDSGK / GRSAGTFDS showed ND, ND, 5.44 (controls 1 of 9).
The variant GFTKNSYGIS / VIYSDGRRNFYGASVK / GRAAGTFDS showed ND, 2.94, ND (controls 1 of 9).
The variant GFTLNSYPIS / VIYSDGRRTFYVDSVK / GRAAGTFHS showed ND, ND, ND (controls 2 of 9).
The variant GFTLNSYGIS / VIYSDGRRTRYGDIVG / GRAAGTFDS showed ND, 4.19, 4.24 (controls 4 of 9).
The variant GFTLNSYGIS / VICSTGRRTFEGDSVK / GRAAGTFDS showed ND, 3.17, 4.52 (controls 4 of 9).
The variant GFTLNSIGIP / VIYSDGRRTFYHDSVK / GRAAGTFDS showed ND, 4.85, ND (controls 0 of 9).
The variant GFTLNSYGIS / VIYSDGRRTTYGDSVK / GRAATHFDS showed ND, ND, ND (controls 0 of 9).
The variant GFTLNSYGIS / VIYSDGRRTFYWDSVK / GRAAGTFDK showed ND, ND, ND (controls 0 of 9).
The variant GFTLNSYGIS / YIYSDGRRTFYGDSVK / GRAAGTFGA showed ND, 2.11, ND (controls 1 of 9).
The variant AFTLNKYGIS / VIYSDGRRTFYGDSVY / GRAAGTFDS showed 2.00, 2.20, 2.24 (controls 4 of 9).
The variant GFTLNSYGIS / VIISDGRRTFYGDSVK / GNAARTFDS showed ND, 2.85, ND (controls 1 of 9).
The variant QFTLNSYGIS / VIYSDGRRTFYGDSHK / GRAHGTFDS showed ND, ND, ND (controls 3 of 9).
The variant GFTLFSYGIS / VIYSDVRRTFYGDSVK / GRAAGTFDL showed ND, ND, ND (controls 0 of 9).
The variant GFTLNSYGIS / VIYSDGRRTFTFDSVK / GRAALTFDS showed ND, ND, 5.40 (controls 0 of 9).

The last 3 entries again:

With QFTLNSYGIS / VIYSDGRRTFYGDSHK / GRAHGTFDS the result was ND, ND, ND (controls 3 of 9).
With GFTLFSYGIS / VIYSDVRRTFYGDSVK / GRAAGTFDL the result was ND, ND, ND (controls 0 of 9).
With GFTLNSYGIS / VIYSDGRRTFTFDSVK / GRAALTFDS the result was ND, ND, 5.40 (controls 0 of 9).